Like-named read-outs stand apart in the source and are kept apart here.
Key:
AT4 receptor [1] = biological target: T1, AT4 receptor (Bos taurus, UniProt F1N1Q8); assay: 125I-AIV binding and competition, solubilized bovine adrenal cortical receptor
rat kidney = assay: Renal cortical blood flow (laser doppler) and arterial pressure after infusion into the renal artery; assay type: in vivo
AT4 receptor [2] = biological target: T1, AT4 receptor; assay: 125I-AIV binding and competition, bovine adrenal cortical membranes

Substance	binding to solubilized AT4 receptor (in words) (AT4 receptor [1])	increased blood flow as % of the maximum attainable with bradykinin (rat kidney; 100 pmole/25 ml/min)	effect on arterial blood pressure (in words) (rat kidney; rat, in vivo)	binding affinity for the AT4 receptor (in words) (AT4 receptor [2])	binding affinity for the AT4 receptor (in words) (AT4 receptor [2]; listed as Lys1 YIHPF)	Ki (AT4 receptor [2])	binding affinity higher than Lys-substituted AIV (AT4 receptor [2])	Ki (AT4 receptor [2]; listed as Nle1 YIHPF)	binding affinity for the AT4 receptor (in words) (AT4 receptor [2]; listed as Nle1 YIHPF)
D-Val1 YIHPF	inactive	–	–	–	–	–	–	–	–
KYIHPF	–	38%	no significant changes in arterial blood pressure	higher binding affinity than AIV	higher than NVal1 YIHPF	–	–	–	–
NleYIHPF	–	–	–	higher binding affinity than AIV	–	1 pM	60 fold	< 1 pM	higher binding affinity for an illustrative AT4 receptor than Lys1 YIHPF

Reference: US5854388A, “Angiotensin IV peptides and receptor” (Washington State University Research Foundation, priority 1994, dated 1998)
